Laboratory results taken from article PMC6104973, “ALX148 blocks CD47 and enhances innate and adaptive antitumor immunity with a favorable safety profile” (PLoS ONE, 2018).

Biological target: ALX222 (human)
Test: SPR; hFcγRs flowed (0-5000 nM) over ALX proteins captured on a GLC chip with immobilised human CD47 ECD; 25°C; PBS pH 7.4, 0.01% Tween-20; equilibrium analysis, for FcγRI also a kinetic Langmuir fit; apparent
Conditions: both partners purified

B1: human FcγRIIB/C (receptor, UniProt P31994 43-217, looked up)
chain: TPAAPPKAVLKLEPQWINVLQEDSVTLTCRGTHSPESDSIQWFHNGNLIPTHTQPSYRFKANNNDSGEYTCQTGQTSLSDPVHLTVLSEWLVLQTPHLEFQEGETIVLRCHSWKDKPLVKVTFFQNGKSKKFSRSDPNFSIPQANHSHSGDYHCTGNIGYTLYSSKPVTITVQAP
notes: Fc gamma receptor IIB/C as printed, human, recombinant soluble; Printed as FcγRIIB/C; also called hFcγRIIB/C
- Kd: 2.2 µM
